Legend:
sPLA2-IIA protein [1] = biological target: T1, sPLA2-IIA protein (Homo sapiens, UniProt P14555); assay: sPLA2-IIA enzyme inhibition assay (thio-PC substrate, DTNB detection, absorbance 410 nm); format: biochemical; parameters: made in house; host or cells: E. coli
T1 sequence (P14555 21-144): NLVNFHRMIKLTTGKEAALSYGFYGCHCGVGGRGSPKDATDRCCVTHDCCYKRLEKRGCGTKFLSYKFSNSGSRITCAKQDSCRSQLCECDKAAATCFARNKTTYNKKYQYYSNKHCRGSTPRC
Source text: (§1) Screening Compounds for Inhibition of sPLA2-X, sPLA2-V, and sPLA2-IIA Enzyme Activity
(§2) These sPLA2 enzymes hydrolyze the sn-2 acyl chains of glycerophospholipids, resulting in the release of a free fatty acid and a lysophospholipid. In the case of the thio-PC substrate, this enzymatic hydrolysis results in a free sulfhydryl group remaining on the lysophospholipid. This free sulfhydryl reacts with DTNB to produce the chromogenic product 5-nitro-2-thiobenzoic acid (TNB) which can be quantitated by absorbance at 410 nm. The amount of TNB produced reflects the hydrolytic activity of the enzyme.
(§3) The recombinant human sPLA2 groups IIA, V, and X enzymes were expressed in E. coli and purified to >90% purity by standard biochemical methods.
(§4) Procedure of Enzyme Inhibition for sPLA2-X • 1. […] Dilute the test compounds in 100% DMSO by half-log steps in a 96-well dilution plate using columns 1-11 (one compound per row). Column 12 contains DMSO alone with no compound. • 3. Prepare a 3.5 mM thio-PC substrate solution by drying down 7.2 mg of stock thio-PC in ethanol under a gentle stream of N2 gas. […] Measure the absorbance of all wells at 410 nm. • 13. Determine the mean absorbance of the “no enzyme” wells. Subtract this value from the absorbance values determined for all other wells (these are now background corrected data). • 14. […]

sPLA2-IIA protein [2] = biological target: T1, sPLA2-IIA protein; assay: SPR single cycle kinetic binding analysis against sPLA2-IIA
sPLA2-X protein = biological target: T2, sPLA2-X protein (Homo sapiens, UniProt O15496); assay: sPLA2-X enzyme inhibition assay (thio-PC substrate, DTNB detection, absorbance 410 nm); format: biochemical; parameters: made in house; host or cells: E. coli; conditions: IC50 value for positive control, value the positive control should give per the procedure
T2 sequence (O15496 43-165): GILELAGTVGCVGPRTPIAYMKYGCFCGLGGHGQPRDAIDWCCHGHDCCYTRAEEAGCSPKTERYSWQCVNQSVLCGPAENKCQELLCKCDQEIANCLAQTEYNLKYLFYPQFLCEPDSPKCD
Source text: as §1, §2, §3, §4

## CCc1c(C(=O)C(N)=O)c2c(OCC(=O)O)cccc2n1Cc1ccccc1 [LY315920, Varespladib, reference compound]
sPLA2-IIA protein [1]; IC50 value for positive control, sPLA2-IIA, value the positive control should give per the procedure
  IC50: ~120 nM
sPLA2-IIA protein [1]; sPLA2 Type IIa Inhibition (IC50; nM), numeric value, control
  IC50: 137 nM
sPLA2-IIA protein [2]
  Kd: 12.1 nM
sPLA2-X protein
  IC50: ~10 nM
